# Measurements taken from ChEMBL document CHEMBL1128530, “Alpha- and beta-adrenoceptors: from the gene to the clinic. 1. Molecular biology and adrenoceptor subclassification” (J Med Chem, 1995).
# Amino acid sequences for entries named in this document (tags omitted). A change or cut given only in a name is not applied to a line headed by its entry.
# UniProt P18871, whole entry: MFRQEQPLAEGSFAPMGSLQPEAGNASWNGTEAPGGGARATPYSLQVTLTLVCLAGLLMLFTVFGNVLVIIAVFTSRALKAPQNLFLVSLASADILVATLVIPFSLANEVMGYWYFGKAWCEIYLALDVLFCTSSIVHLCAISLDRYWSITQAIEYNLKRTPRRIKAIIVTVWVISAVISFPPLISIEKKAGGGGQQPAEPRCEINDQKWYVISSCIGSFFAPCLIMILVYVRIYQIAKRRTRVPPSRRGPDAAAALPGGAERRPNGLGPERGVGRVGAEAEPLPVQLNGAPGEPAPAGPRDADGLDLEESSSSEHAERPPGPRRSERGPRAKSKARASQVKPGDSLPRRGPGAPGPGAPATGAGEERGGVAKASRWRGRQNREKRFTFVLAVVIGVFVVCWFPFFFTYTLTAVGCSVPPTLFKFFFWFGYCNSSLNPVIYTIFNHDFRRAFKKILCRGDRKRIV
# UniProt P30545: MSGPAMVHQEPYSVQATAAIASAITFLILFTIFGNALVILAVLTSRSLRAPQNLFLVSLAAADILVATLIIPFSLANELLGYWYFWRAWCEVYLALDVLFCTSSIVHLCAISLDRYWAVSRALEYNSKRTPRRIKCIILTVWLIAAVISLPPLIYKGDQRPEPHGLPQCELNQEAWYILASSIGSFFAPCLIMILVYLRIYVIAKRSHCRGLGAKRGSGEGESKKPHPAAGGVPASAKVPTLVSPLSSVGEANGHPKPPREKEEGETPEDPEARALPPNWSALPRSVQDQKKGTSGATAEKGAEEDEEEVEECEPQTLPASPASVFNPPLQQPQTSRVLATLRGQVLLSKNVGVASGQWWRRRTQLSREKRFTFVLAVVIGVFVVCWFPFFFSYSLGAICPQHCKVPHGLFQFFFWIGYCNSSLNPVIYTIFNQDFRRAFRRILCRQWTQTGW
# UniProt Q01338: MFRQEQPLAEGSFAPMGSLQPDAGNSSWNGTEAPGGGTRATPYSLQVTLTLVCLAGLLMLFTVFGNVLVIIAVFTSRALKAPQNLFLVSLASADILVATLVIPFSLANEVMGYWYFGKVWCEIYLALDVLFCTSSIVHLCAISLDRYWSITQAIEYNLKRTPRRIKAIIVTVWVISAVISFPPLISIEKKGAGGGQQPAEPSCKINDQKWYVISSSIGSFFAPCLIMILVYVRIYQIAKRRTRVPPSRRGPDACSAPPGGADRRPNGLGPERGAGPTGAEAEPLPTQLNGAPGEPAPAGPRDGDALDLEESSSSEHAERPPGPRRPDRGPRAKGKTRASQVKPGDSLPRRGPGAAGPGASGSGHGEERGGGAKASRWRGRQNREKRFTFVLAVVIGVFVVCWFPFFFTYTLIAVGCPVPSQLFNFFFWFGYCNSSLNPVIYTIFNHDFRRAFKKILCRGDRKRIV
# UniProt Q01337: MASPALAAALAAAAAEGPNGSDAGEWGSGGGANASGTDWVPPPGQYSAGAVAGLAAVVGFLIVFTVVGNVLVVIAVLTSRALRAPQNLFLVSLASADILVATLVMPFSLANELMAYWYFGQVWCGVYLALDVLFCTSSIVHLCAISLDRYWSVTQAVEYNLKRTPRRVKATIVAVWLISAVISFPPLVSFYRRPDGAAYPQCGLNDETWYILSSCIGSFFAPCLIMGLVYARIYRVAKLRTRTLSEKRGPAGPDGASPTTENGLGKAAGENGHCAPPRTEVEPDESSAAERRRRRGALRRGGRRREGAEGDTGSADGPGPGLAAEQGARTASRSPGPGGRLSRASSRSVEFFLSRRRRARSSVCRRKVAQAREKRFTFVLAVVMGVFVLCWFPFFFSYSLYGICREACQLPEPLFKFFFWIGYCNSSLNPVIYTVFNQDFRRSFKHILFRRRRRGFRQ
# Legend:
# [1] = target: Alpha-2A adrenergic receptor (Sus scrofa, UniProt P18871); assay: Compound was evaluated for inhibition of binding of [3H]yohimbine to Alpha-2 adrenergic receptor in porcine alpha2-clone
# [2] = target: Alpha-2 adrenergic receptor (Mus musculus, UniProt P30545+Q01338+Q01337); assay: Compound was evaluated for inhibition of binding of [3H]-MK-91 to Alpha-2 adrenergic receptor in mouse NG-108 cells; type: cell-based
# [3] = target: T1, Alpha-1A adrenergic receptor (Rattus norvegicus, UniProt P43140); assay: Overall binding displacement in tissues containing only the Alpha-1A adrenergic receptor from rat submaxillary gland
# T1 sequence (P43140 whole entry): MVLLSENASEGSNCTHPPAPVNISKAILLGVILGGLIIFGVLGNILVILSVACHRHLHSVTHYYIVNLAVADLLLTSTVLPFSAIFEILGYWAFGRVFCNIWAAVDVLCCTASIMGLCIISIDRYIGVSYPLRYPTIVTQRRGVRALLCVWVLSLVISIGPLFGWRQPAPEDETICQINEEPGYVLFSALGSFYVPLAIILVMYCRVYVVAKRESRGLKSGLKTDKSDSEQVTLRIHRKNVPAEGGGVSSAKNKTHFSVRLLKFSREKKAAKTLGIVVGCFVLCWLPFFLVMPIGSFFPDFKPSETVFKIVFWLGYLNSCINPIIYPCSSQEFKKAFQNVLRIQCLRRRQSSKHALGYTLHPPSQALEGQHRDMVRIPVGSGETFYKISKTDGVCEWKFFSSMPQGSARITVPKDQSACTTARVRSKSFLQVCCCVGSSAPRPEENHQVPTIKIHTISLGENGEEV
smiles,measurement,setting,value
COC(=O)[C@@H]1[C@H]2C[C@H]3c4[nH]c5ccccc5c4CCN3C[C@@H]2CC[C@@H]1O [YOHIMBINE],Ki,[1],4.4 nM
COc1cc2nc(N3CCN(C(=O)c4ccco4)CC3)nc(N)c2cc1OC [PRAZOSIN],Ki,[2],13 nM
O=C(CCCN1CCC2(CC1)C(=O)NCN2c1ccccc1)c1ccc(F)cc1 [SPIPERONE],Ki,[3],7.2 nM
